Assay results published in patent US8101608B2, “Compounds and compositions as protein kinase inhibitors” (IRM LLC, a Delware Limited Corporation, priority 2004, dated 2012).

Amino acid sequences for entries named in this document (tags omitted). Residues count along the entry.
UniProt Q16620, 538-822 limits assumed, stated change not applied: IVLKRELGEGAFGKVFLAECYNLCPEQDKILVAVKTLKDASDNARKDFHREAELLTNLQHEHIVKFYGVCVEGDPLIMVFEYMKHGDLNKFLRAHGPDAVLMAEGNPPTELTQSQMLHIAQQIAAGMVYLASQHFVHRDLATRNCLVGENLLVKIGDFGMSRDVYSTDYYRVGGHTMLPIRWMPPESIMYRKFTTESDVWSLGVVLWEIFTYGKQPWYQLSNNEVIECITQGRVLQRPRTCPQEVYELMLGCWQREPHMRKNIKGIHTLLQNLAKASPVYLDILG
UniProt Q16620, 32-822: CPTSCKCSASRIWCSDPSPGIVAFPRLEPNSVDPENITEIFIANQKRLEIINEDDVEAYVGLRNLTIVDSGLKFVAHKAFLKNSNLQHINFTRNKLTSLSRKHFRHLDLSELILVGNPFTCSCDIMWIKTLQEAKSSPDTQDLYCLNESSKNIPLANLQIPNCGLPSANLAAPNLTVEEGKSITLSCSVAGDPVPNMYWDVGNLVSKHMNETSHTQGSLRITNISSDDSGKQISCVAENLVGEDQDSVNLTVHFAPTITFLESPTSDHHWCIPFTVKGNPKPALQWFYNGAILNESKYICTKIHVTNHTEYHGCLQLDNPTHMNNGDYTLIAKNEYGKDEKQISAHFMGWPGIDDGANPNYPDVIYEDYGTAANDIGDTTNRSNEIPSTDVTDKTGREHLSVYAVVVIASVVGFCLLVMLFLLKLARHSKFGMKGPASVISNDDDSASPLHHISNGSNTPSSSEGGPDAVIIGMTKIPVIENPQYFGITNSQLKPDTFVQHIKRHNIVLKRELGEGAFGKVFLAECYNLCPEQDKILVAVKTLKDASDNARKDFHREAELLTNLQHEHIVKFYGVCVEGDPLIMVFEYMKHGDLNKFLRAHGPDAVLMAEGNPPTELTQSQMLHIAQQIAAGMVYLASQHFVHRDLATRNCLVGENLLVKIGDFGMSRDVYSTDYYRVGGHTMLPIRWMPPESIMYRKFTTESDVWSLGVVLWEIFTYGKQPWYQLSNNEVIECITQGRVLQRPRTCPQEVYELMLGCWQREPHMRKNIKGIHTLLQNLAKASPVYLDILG

Experiments:
[1] = target: T1, TrkB (Homo sapiens, UniProt Q16620); conditions: read-out: IC50 for TrkB; cellular proliferation, Ba/F3 cells, MTT
[2] = target: cSRC (Homo sapiens, UniProt P12931); test: biochemical
[3] = target: T1, TrkB; test: biochemical

GI50 [1]: 8.2 nM | IC50 [2]: 53 nM | IC50 [3]: 14 nM
Compound: Cc1cn(-c2cc(C(=O)Nc3cccc(Nc4ccc5c(c4)NC(=O)/C5=C/c4ccc[nH]4)c3)cc(C(F)(F)F)c2)cn1 [Example 1]
